# Reference: ChEMBL document CHEMBL4393708, “Pyridinylimidazoles as dual glycogen synthase kinase 3β/p38α mitogen-activated protein kinase inhibitors” (Eur J Med Chem, 2019)
# Organism: Homo sapiens
# Assay: Selectivity ratio, Ratio of IC50 for human recombinant full length GSK3alpha to IC50 for human recombinant full length GSK3beta using YRRAAVPPSPSLSRHSSPHQ(pS)EDEEE as substrate preincubated with enzyme for 10 mins followed by substrate and 25 uM ATP addition measured after 60 mins by ADP-Glo luminescence assay
row,SMILES,Ratio IC50
1,CSc1nc(-c2ccc(F)cc2)c(-c2ccnc(NC(=O)C3CC3)c2)[nH]1,7.5
2,CCc1nc(-c2ccc(F)cc2)c(-c2ccnc(NC(=O)C3CC3)c2)[nH]1,8.6
